These are literature values, as cited in patent US20100004187A1 (priority 2008, published 2010).

Protein sequences, listed by entry. Tags and fused reporters are not part of them. Residues count along the entry.
UniProt P02930, 23-493: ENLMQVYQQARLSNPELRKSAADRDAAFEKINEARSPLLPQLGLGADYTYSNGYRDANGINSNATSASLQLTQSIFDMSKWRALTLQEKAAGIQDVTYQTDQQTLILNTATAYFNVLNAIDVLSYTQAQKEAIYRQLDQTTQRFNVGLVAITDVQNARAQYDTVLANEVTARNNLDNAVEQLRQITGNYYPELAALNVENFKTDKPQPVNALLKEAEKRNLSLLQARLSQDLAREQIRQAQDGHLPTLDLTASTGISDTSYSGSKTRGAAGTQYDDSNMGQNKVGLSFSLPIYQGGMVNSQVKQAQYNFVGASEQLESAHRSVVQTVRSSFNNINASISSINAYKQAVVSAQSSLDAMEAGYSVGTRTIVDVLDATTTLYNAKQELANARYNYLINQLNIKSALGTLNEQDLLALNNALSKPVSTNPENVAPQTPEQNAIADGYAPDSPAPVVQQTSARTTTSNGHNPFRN

In this data set the target is TolC (E. coli) (Escherichia coli, UniProt P02930). The note with it: read-out: binding affinity; isothermal titration calorimetry; cited from earlier work. On the technique in general: ITC needs no label: the signal is the heat of the interaction.

Take hexamminecobalt (III) chloride [Cohex]: the Kd was 20 nM.
